From patent publication CN115252762A, “一种高分子化合物的生长因子结合用途” (East China University of Science and Technology, priority 2021, dated 2022)

Test system: C2C12 cells [C2C12细胞]
Assay: Osteogenic differentiation of C2C12 on BMP-2-loaded gelatin sponge (RT-qPCR, western blot)
Type: cell-based, mouse
Details: compared with pure medium (Ctrl); 3 and 7 days; 1 μg BMP-2 loaded

B1: BMP-2: bone morphogenetic protein-2 (protein, UniProt P12643 283-396, looked up)
Bone morphogenetic protein 2: QAKHKQRKRLKSSCKRHPLYVDFSDVGWNDWIVAPPGYHAFYCHGECPFPLADHLNSTNHAIVQTLVNSVNSKIPKACCVPTELSAISMLYLDENEKVVLKNYQDMVVEGCGCR
  expression of osteogenesis-related proteins: 显著增加
